Apparent affinities of Ab-95 variants for a coronavirus HR2 peptide

Binding partner: SARS-CoV-2 spike HR2 peptide, sequence PDVDLGDISGINAS.

Parent scFv Ab-95: VH joined to VL by three GGGGS repeats. Changes lie in the light chain CDRs alone.
VH: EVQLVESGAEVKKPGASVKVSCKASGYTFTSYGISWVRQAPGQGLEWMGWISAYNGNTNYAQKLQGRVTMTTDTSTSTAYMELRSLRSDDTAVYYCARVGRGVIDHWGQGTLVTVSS
VL: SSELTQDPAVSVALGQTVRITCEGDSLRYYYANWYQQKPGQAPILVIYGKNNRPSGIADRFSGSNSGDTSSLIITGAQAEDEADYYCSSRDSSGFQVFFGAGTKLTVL

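The parent was found by panning a naive human phage display library on the peptide. In library AAYL52, one, two or three CDR residues were substituted; doubles and triples were drawn at random. In AlphaSeq, yeast of one mating type display the scFv and yeast of the other type display the target. The frequency of each diploid, read from paired DNA barcodes, reflects how well the two displayed proteins bind. Read counts were normalised to the haploid input and turned into Kd by a linear fit to BCL2-family pairs of known affinity, for each replicate. The assay was run in three technical replicates.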

Variants are written as CDR1, CDR2 and CDR3 of the light chain (limits as in the source). Parent: EGDSLRYYYAN, GKNNRPS, SSRDSSGFQVF.
Numbers give log10(Kd / nM), so 0 is 1 nM and 3 is 1 µM. Smaller is tighter.
The mean shown is taken over the replicates in which the pair was detected.
Where no diploid with the target was found in that replicate, the entry reads "n.d.": below detection, most likely a poor binder, though not proof of it.
Background: pairings of library AAYL52 with three empty control strains gave a value in 28% of cases (median 3.91, 5th percentile 2.90). Values in that range, when seen in few replicates, are hard to tell from nonspecific mating. The control count says in how many pairings with the empty strains this scFv gave a signal, with their mean in brackets.
In this assay the parent's reference entry averaged 2.31; its copy inside this library read 2.25.

CDR-L1,CDR-L2,CDR-L3,"log10 Kd, replicates","mean, log10 nM",signal with controls
EGDSLKYYTAE,GKNNRPS,SSRDSSGFQVF,3.91 / n.d. / n.d.,3.91,1 of 9 (3.20)
EGDSLRYYYAN,GLNNRPS,SMRDSSGFQCF,3.43 / n.d. / n.d.,3.43,2 of 9 (4.15)
ESDSLRYYYAF,GKNNRPS,ISRDSSGFQVF,n.d. / 3.49 / 4.19,3.84,2 of 9 (4.46)
EGDSLRYYNAN,GKNNRPV,SSRDSSGFQVI,3.77 / 3.30 / 3.48,3.51,4 of 9 (3.48)
EGDSLRYYYAN,GKNNRKS,SSRDESRFQVF,n.d. / n.d. / n.d.,n.d.,0 of 9
EGDSLRYYYAN,LKNNFPS,SIRDSSGFQVF,5.03 / 5.54 / 4.21,4.93,4 of 9 (4.15)
KGDSLRYYYAN,GKNNRSS,SSRDSSGFQVF,1.93 / 1.76 / 1.44,1.71,3 of 9 (4.03)
EGDSLRYYEAN,GKNNEPS,SSRYSSGFQVF,3.44 / n.d. / n.d.,3.44,2 of 9 (3.57)
EGDSLRYKYAN,GKNDRPS,SSRDSSKFQVF,1.29 / 1.27 / 0.78,1.11,2 of 9 (4.44)
EGDSLRYEYAN,GKNNRPS,STRVSSGFQVF,1.11 / 1.77 / 0.89,1.26,0 of 9
EGDSLRYYQAN,GKNGRPS,SSRDSSGFVVF,2.95 / 2.53 / 2.51,2.66,5 of 9 (3.95)
EGDSLRQYYAP,GKNNRPS,SSRDSSGFQDF,n.d. / n.d. / n.d.,n.d.,2 of 9 (4.77)
EGMSLRYYYAN,EKNNRPS,SSRDSSGFQKF,n.d. / 4.00 / n.d.,4.00,1 of 9 (3.47)
EGVSLQYYYAN,GKNNRPS,SSRDSTGFQVF,2.51 / 2.90 / 2.74,2.71,2 of 9 (3.65)
EGDSLRYYSAK,GKNNRPS,MSRDSSGFQVF,2.83 / 2.09 / 1.93,2.29,2 of 9 (3.33)
EGFSLRYYYAN,GKDNRPS,SSRDSYGFQVF,4.31 / 3.89 / 3.81,4.01,3 of 9 (3.62)
EGDSLRYVYAN,GKCNRPS,SSRDSPGFQVF,5.52 / 3.62 / 4.12,4.42,5 of 9 (4.70)
EGDSLRYYYAN,GKNNDPS,SYRDSIGFQVF,n.d. / n.d. / n.d.,n.d.,0 of 9
EGDSLRYYRAN,GKNNMPS,SSGDSSGFQVF,3.95 / 4.08 / 2.88,3.64,1 of 9 (3.32)
ERDSLRYYYAN,RKNNRPS,SPRDSSGFQVF,n.d. / n.d. / n.d.,n.d.,0 of 9
ESDSLRYYTAN,GKFNRPS,SSRDSSGFQVF,4.75 / 4.22 / 4.83,4.60,5 of 9 (4.67)
GGDSLRYYYAQ,GKNNRPS,SSRDSSDFQVF,3.47 / n.d. / n.d.,3.47,3 of 9 (3.59)
IGDSLRYYYAV,GKNNRPS,SSRDSSGFQVF,3.96 / n.d. / 4.19,4.08,1 of 9 (5.16)
EGDSLRYYYAN,CKNNRPS,SSRDSSGEQVF,n.d. / n.d. / n.d.,n.d.,2 of 9 (3.50)
EGFRLRYYYAN,GKNNRPS,SSRDSSGVQVF,3.39 / n.d. / n.d.,3.39,4 of 9 (3.77)
EGDSLWYYYAG,GKNDRPS,SSRDSSGFQVF,5.21 / 5.84 / 4.10,5.05,3 of 9 (4.23)
EGDSLRFYYAN,GKRERPS,SSRDSSGFQVF,4.08 / 5.75 / 4.16,4.66,1 of 9 (4.01)
EGDSLRYYYAN,GKNNHPS,SSRRSSGFQTF,2.71 / 3.28 / 3.39,3.13,1 of 9 (3.99)
EGDSLRYYYAN,GKNNRPS,SSMDSSGPQQF,3.25 / 4.24 / 2.72,3.40,3 of 9 (3.98)
EGDSLRYYWAN,GKNNRPS,QSRDSSGFYVF,3.08 / n.d. / n.d.,3.08,4 of 9 (3.42)
EGDSLREYYAN,GKNNRPS,PSRDSSGFQVF,2.62 / 2.05 / 1.88,2.18,0 of 9
EGDSLRYSYAN,GQNNRHS,SSRDSSGFQVF,0.87 / 0.88 / 0.19,0.65,4 of 9 (4.40)
EGDSLRYYYRN,GKNNRDS,SSMDSSGFQVF,4.14 / 3.89 / n.d.,4.02,3 of 9 (3.19)
EGDSYRYYYAN,GNNNRPS,STRDSSGFQVF,n.d. / n.d. / n.d.,n.d.,1 of 9 (3.96)
EGDSLRYYYAN,GKNNRHS,SSWDSSGAQVF,2.52 / 3.12 / 2.20,2.61,3 of 9 (4.23)
EGDSLRYSYAN,GFNNRPS,SSRDSCGFQVF,2.24 / 2.06 / 1.72,2.00,2 of 9 (3.96)
EGDSLRYYYAN,GKNQGPS,SSLDSSGFQVF,n.d. / n.d. / n.d.,n.d.,0 of 9
EWDSLRYYYAN,GKNIRPN,SSRDSSGFQVF,3.75 / 3.99 / 3.71,3.82,1 of 9 (4.50)

The 5 strongest on average among those seen in every replicate, once more:

CDR-L1,CDR-L2,CDR-L3,"log10 Kd, replicates","mean, log10 nM",signal with controls
EGDSLRYSYAN,GQNNRHS,SSRDSSGFQVF,0.87 / 0.88 / 0.19,0.65,4 of 9 (4.40)
EGDSLRYKYAN,GKNDRPS,SSRDSSKFQVF,1.29 / 1.27 / 0.78,1.11,2 of 9 (4.44)
EGDSLRYEYAN,GKNNRPS,STRVSSGFQVF,1.11 / 1.77 / 0.89,1.26,0 of 9
KGDSLRYYYAN,GKNNRSS,SSRDSSGFQVF,1.93 / 1.76 / 1.44,1.71,3 of 9 (4.03)
EGDSLRYSYAN,GFNNRPS,SSRDSCGFQVF,2.24 / 2.06 / 1.72,2.00,2 of 9 (3.96)

Values reported by Engelhart et al. 2022, doi:10.1038/s41597-022-01779-4 (FLAb copy).